Patent US5965524A, “Analogs of viscosin and uses thereof” (Peptide Technologies Corporation, priority 1994, dated 1999)

What was measured:
[1] = Cell toxicity in the HSV-2 assay; details: host cells of the HSV-2 assay
Source text: (Davis, B., Chapter 55 in Microbiology, Including Immunology and Molecular Genetics, 3rd Ed., Harper & Row, Philadelphia (1980), p. 1064). Particularly preferred host cells are rabbit skin cells or Vero cells. (Grammer, S., et al., J. Immunol. 145:2249-2253 (1990); Gao, W., et al., J. Biol. Chem. 265:20172-20178 (1990)). […] (See, e.g., Groupe, V., et al., Proc. Soc. Exptl. Biol. Med. 78:354-358 (1951); Mitsuya, H., et al., Science 226:172-174 (1984)). Acyclovir, a known antiherpesviral agent (Douglas, R., Chapter 51 in Goodman and Gilman's the Pharmacological Basis of Therapeutics, 8th Ed., G. Gilman et al., eds., Pergamon Press, New York (1980)), was used as a positive control.

[2] = footnote 2 of Table I

Row | Substance | Cell Toxicity [1] [µg/mL] | Solubility in water [2]
1 | Octadecanoyl Viscosin [Compound 4] | > 100 | Insoluble in water
2 | Deshydroxy Viscosin [Compound 3] | 100 | 
